In patent US6780871B2, “Methods and compositions for treating addiction disorders” (Albany Medical College, priority 2001, dated 2004):
Like-named read-outs stand apart in the source and are kept apart here.

Protein sequences, listed by entry. Tags and fused reporters are not part of them. Residues count along the entry.
UniProt P23979, 24-489: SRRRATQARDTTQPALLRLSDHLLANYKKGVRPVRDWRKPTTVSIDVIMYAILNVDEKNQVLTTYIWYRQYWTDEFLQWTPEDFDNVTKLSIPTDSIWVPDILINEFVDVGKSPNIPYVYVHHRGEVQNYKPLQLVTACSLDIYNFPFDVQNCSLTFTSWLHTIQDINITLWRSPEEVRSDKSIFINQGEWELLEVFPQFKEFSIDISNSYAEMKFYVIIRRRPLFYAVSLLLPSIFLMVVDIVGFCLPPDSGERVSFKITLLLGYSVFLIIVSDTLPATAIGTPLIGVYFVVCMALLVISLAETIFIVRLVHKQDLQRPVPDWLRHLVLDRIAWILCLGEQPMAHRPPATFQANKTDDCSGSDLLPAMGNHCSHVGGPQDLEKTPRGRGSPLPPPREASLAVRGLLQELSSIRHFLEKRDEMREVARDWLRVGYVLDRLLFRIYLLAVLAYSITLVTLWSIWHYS
UniProt P09483, 31-630: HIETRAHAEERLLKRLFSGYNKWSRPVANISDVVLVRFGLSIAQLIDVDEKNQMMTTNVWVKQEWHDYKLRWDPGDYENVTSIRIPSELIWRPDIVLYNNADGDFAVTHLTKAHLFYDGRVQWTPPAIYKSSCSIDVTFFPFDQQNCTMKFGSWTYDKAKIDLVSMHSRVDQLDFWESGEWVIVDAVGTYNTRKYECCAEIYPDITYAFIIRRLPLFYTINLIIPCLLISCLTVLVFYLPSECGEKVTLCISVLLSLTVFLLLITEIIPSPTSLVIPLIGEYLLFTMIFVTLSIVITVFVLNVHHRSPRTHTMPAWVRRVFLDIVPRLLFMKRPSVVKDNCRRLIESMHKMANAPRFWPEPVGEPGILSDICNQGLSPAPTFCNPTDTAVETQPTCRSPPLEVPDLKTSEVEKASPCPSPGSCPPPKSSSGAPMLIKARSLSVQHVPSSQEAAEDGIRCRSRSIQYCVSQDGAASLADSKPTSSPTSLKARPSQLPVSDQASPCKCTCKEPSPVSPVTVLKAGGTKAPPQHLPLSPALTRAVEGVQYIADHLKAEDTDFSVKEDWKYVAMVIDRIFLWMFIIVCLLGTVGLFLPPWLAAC
UniProt P12390, 25-500: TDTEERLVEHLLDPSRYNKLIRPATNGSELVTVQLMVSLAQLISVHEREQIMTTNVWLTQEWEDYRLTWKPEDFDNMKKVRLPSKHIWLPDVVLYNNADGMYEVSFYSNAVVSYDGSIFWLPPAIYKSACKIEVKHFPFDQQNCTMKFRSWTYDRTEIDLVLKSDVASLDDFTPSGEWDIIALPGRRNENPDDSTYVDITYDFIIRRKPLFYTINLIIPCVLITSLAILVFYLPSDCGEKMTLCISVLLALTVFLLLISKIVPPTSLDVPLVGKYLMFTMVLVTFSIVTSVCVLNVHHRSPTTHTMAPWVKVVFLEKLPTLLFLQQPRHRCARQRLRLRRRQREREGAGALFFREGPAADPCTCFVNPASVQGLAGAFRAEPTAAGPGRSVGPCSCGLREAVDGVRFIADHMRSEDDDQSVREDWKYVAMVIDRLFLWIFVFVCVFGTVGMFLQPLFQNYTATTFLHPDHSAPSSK
UniProt P04757, 26-499: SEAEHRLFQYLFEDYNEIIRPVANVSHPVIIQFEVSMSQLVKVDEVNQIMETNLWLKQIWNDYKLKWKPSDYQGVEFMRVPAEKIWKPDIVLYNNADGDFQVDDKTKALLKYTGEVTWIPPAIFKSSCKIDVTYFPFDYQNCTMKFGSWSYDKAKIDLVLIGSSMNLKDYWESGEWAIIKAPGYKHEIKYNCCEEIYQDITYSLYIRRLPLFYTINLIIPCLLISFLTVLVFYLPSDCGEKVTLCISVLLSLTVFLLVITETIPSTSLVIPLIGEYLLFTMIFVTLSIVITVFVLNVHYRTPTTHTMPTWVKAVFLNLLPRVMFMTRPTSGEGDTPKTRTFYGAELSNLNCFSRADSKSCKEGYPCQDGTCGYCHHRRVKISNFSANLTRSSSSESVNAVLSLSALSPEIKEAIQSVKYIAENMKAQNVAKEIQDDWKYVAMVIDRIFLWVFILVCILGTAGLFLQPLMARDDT
UniProt P12392, 21-495: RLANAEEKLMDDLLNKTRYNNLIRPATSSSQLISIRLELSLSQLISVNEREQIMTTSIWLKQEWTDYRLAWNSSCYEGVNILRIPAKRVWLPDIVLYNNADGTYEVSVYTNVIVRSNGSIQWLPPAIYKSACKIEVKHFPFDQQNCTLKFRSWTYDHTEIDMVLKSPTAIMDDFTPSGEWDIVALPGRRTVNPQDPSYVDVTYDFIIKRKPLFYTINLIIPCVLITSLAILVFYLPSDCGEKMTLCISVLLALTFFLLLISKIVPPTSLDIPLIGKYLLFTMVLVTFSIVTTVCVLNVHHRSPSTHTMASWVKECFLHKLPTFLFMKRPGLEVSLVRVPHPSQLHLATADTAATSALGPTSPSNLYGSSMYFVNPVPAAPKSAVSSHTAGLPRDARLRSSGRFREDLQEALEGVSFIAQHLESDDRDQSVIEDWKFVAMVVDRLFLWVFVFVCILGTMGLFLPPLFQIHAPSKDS

Experiments:
Assay type in all cases: cell-based
[1] = target: T1, 5-HT3A receptors (Mus musculus, UniProt P23979); test: whole-cell patch-clamp of transfected HEK293 cells, 5-HT3A, 100 μM serotonin; conditions: read-out: IC50 at 5-HT3 receptors; approximate, from 20 μM data
T1 construct: expressed in transfected cells; host or cells: HEK293 (ATCC CRL1573), transient transfection
Experimental: (§1) Human embryonic kidney 293 (HEK293) fibroblasts (ATCC CRL1573) were cultured in minimal essential medium supplemented with 10% fetal bovine serum and 2 mM glutamine (Life Technologies, Rockville, Md.). Cells were plated on poly-D-lysine-coated 35 mm nunc dishes, transfected by the LipofectaminePLUS method (Life Technologies), and examined functionally between 18-48 h post transfection. […] Whole-cell capacitance and series resistance were recorded and adequately compensated using the available circuitry of the amplifier. […] Rapid switching between inputs was achieved using a set of upstream solenoid valves (Lee Co., Westbrook, Conn.) under computer control; the solution exchange rate was ˜5 ms as measured from liquid junction currents.
Transfected HEK293 cells expressing 5-HT3A receptors were voltage-clamped to −70 mV and stimulated with 100 μM serotonin at 30 s intervals. […] This is shown in FIG. 4, where open bars depict the timing of agonist application, filled bars depict the timing of co-application of 20 μM IBO or 20 μM 18MC, and inhibition was measured relative to control at the end of the drug application (indicated by arrows).

[2] = target: T2, nACh receptors (Rattus norvegicus, UniProt P09483+P12390); test: whole-cell patch-clamp of transfected HEK293 cells, neuronal nACh receptors, 300 μM ACh; conditions: read-out: IC50 suggested by the inhibition data, estimated from 5 and 20 μM data
T2 construct: expressed in transfected cells; host or cells: HEK293 (ATCC CRL1573), transient transfection
Experimental: as §1
(§2) Transfected HEK293 cells expressing various receptor subunit cDNAs were examined by whole-cell patch-clamp recording with fast perfusion of agonist and drug solutions. […] In FIG. 1A, open bars depict the timing of ACh application; filled bars depict the timing of co-application of 20 μM IBO or 20 μM 18MC; and inhibition was measured relative to control at the end of the drug application (indicated by arrows). […]

[3] = target: T3, α3β4 nACh receptors (Rattus norvegicus, UniProt P04757+P12392); test: whole-cell patch-clamp of transfected HEK293 cells, ganglionic α3β4 nACh receptors, 1 mM ACh
T3 construct: expressed in transfected cells; host or cells: HEK293 (ATCC CRL1573), transient transfection
Experimental: as §1, §2

## ibogaine
[1]
  IC50: ~20 µM
[2]
  IC50: 1000 to 5000 nM
[3]; read-out: IC50, inhibition of ACh-evoked whole-cell currents, -70 mV, HEK293, FIG. 1B, 3-14 cells per point
  IC50: 220 nM
[3]; read-out: IC50, inhibition of ACh-evoked whole-cell currents, -70 mV, HEK293, FIG. 1B, 3-14 cells per point, listed as IBO
  IC50: 750 nM
